From patent US7601708B2, “Bile-acid derived compounds for providing sustained systemic concentrations of drugs after oral administration” (XenoPort, Inc., priority 2000, dated 2009)

By UniProt entry, the sequences of proteins in these tests, tags left out.
UniProt Q12908, whole entry: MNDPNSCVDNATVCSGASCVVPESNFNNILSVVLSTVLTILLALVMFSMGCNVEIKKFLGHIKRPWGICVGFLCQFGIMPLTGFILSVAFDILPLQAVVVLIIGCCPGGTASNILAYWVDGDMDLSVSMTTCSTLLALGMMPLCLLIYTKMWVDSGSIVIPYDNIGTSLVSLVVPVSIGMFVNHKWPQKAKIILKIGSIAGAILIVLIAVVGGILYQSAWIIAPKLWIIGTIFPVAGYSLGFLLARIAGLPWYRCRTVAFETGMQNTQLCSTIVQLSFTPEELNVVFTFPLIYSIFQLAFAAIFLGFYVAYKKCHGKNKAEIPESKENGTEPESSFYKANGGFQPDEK

Molecular target: IBAT (Homo sapiens, UniProt Q12908)
Assay: Electrogenic transport in Xenopus oocytes expressing IBAT
Assay type: cell-based
Conditions: maximal induced current relative to glycodeoxycholate (100 μM)

C[C@H](CCC(=O)O[C@H](C)C(=O)NCC1(CC(=O)O)CCCCC1)[C@H]1CC[C@H]2[C@@H]3[C@H](O)C[C@@H]4C[C@H](O)CC[C@]4(C)[C@H]3C[C@H](O)[C@]12C
% Max. (GDC): 70%

C[C@H](CCC(=O)OCC(=O)NCC1(CC(=O)O)CCCCC1)[C@H]1CC[C@H]2[C@@H]3[C@H](O)C[C@@H]4C[C@H](O)CC[C@]4(C)[C@H]3C[C@H](O)[C@]12C
% Max. (GDC): 83%

C[C@H](CCC(=O)NCC1(CC(=O)O)CCCCC1)[C@H]1CC[C@H]2[C@@H]3[C@@H](O)C[C@@H]4C[C@H](O)CC[C@]4(C)[C@H]3CC[C@]12C
% Max. (GDC) (tested form: Na salt): 60%

C[C@H](OC(=O)CC[C@@H](C)[C@H]1CC[C@H]2[C@@H]3[C@H](O)C[C@@H]4C[C@H](O)CC[C@]4(C)[C@H]3C[C@H](O)[C@]12C)C(=O)NCC1(CC(=O)O)CCCCC1
% Max. (GDC): 76%
